# Values of other authors as cited in patent publication US8426385B2 (Hainan Hdeton Science and Technology Co. Ltd., priority 2006, dated 2013).
# Conditions: phase solubility studies; cited from earlier work
substance,measurement,value
hydroxypropyl-γ-cyclodextrin,dual-inclusion constant with paclitaxel,1886 M⁻¹
